{
  "source": "patent US7923469B2",
  "about": "“Compositions including vitamin-based surfactants and methods for using same” (Allergen, Inc., priority 2001, dated 2011)",
  "origin": "cited, not measured here",
  "conditions": "in water at 37° C.",
  "data": [
    {"substance": "D-alpha-tocopheryl polyethylene glycol 1000 succinate [Vitamin E TPGS]", "values": [
      {"measurement": "critical micelle concentration (CMC)", "result": "about 0.02 w/v %"}
    ]}
  ]
}
